Assay results from patent US12507703B2, “Methods, devices and compositions for preserving human milk” (The Trustees of Princeton University, priority 2023, dated 2025).
Where a SMILES comes first, the peptide text is derived from it.

Tested on: lipase
Assay: Lipase/lipolysis assay (EnzChek Lipase Substrate, quenched BODIPY-fatty acid conjugate) on stored human milk
[1] = Biolog PM1 compound added to fresh human milk, stored 1 week at −20° C., RFU <400 = hit
[2] = Table 7, single compound 20 mg/mL, human milk stored 1 week at −20° C., inhibited if RFU <400
[3] = Food-Sourced Compound Library compound added to fresh human milk, stored 1 week at −20° C., thawed at room temperature, RFU <400 considered a hit
[4] = Biolog PM2a compound added to fresh human milk, stored 1 week at −20° C., RFU <400 = hit
[5] = compound added to fresh human milk, stored 1 week at −20° C., thawed at room temperature, RFU <400 considered a hit
[6] = Food Additive Library compound added to fresh human milk, stored 1 week at −20° C., thawed at room temperature, RFU of <400 considered a hit
[7] = Biolog PM4 compound added to fresh human milk, stored 1 week at −20° C., RFU <400 = hit
[8] = Biolog PM5 compound added to fresh human milk, stored 1 week at −20° C., RFU <400 = hit

NC(=O)[C@@H](O)[C@@H](O)[C@H](O)[C@@H](O)C=O [Glucuronamide]
Lipase (RFU) [1]: 916.3562 RFU

O=c1c(O)c(-c2ccc(O)c(O)c2)oc2cc(O)cc(O)c12 [Quercetin]
Lipase (RFU) [2]: 803.814 RFU

CC[C@@H](N)C(=O)O [D(−)-2-Aminobutyric acid]
Lipase (RFU) [3]: 841.3954 RFU

OC[C@@H](O)[C@@H](O)[C@@H](O)CO [Ribitol]
Lipase (RFU) [3]: 769.1821 RFU

CC(=O)C(C)O (stereo not drawn) [3-Hydroxy 2-Butanone]
Lipase (RFU) [4]: 1237.018 RFU

O=c1[nH]c(=O)c2[nH]c(=O)[nH]c2[nH]1 [Uric acid]
Lipase (RFU) [5]: 923.7282 RFU

Nc1nc2ncc([C@H](O)[C@H](O)CO)nc2c(=O)[nH]1 [Neopterin]
Lipase (RFU) [3]: 959.9653 RFU

C[C@H](O)[C@@H](O)[C@@H](O)[C@H](O)C=O [L-Fucose]
Lipase (RFU) [1]: 882.8257 RFU

CCCCCCCCCCCCCCCC(=O)OC[C@H](O)[C@H]1OC(=O)C(O)=C1O [6-O-Palmitoyl-L-ascorbic acid]
Lipase (RFU) [2]: 796.394 RFU

CC1=C(O)C(=O)C(C)O1 (stereo not drawn) [Furaneol]
Lipase (RFU) [6]: 916.5799 RFU
Lipase (RFU) [5]: 1033.999 RFU

CC(=O)OCc1ccccc1 [Benzyl acetate]
Lipase (RFU) [5]: 947.1435 RFU

O=C(O)CCCC[C@@H]1SC[C@@H]2NC(=O)N[C@@H]21 [Biotin]
Lipase (RFU) [6]: 1165.648 RFU
Lipase (RFU) [5]: 1070.542 RFU

COc1cc2oc(-c3ccc(O)cc3)cc(=O)c2c(O)c1OC [Cirsimaritin]
Lipase (RFU) [5]: 1060.157 RFU

COc1ccc(C[C@H]2COC(=O)[C@@H]2Cc2ccc(O[C@@H]3O[C@H](CO)[C@@H](O)[C@H](O)[C@H]3O)c(OC)c2)cc1OC [Arctiin]
Lipase (RFU) [5]: 645.9765 RFU

CC(C)C1=Cc2ccc3c(c2C(=O)C1=O)CCCC3(C)C [Miltirone]
Lipase (RFU) [5]: 1109.155 RFU

CC(=O)N[C@H]1C(O)O[C@H](CO)[C@@H](O[C@@H]2O[C@H](CO)[C@H](O)[C@H](O)[C@H]2O)[C@@H]1O (stereo partly drawn) [N-Acetyllactosamine]
Lipase (RFU) [5]: 846.7809 RFU

O=C(O)C(=O)O [Oxalic Acid]
Lipase (RFU) [4]: 973.8306 RFU
Lipase (RFU) [5]: 839.6453 RFU

CC(=O)CC(=O)O [Acetoacetic Acid]
Lipase (RFU) [1]: 1111.177 RFU

CC1=CC(=O)C(C(C)C)=CC1=O [Thymoquinone]
Lipase (RFU) [3]: 1249.473 RFU

N[C@@H](CC(=O)O)C(=O)O [(−)-Aspartic acid]
Lipase (RFU) [3]: 911.1368 RFU

CNCc1ccccc1 [N-Methylbenzylamine]
Lipase (RFU) [5]: 1178.371 RFU

C=CC(C)(O)CCC=C(C)C (stereo not drawn) [Linalool]
Lipase (RFU) [6]: 1079.408 RFU
Lipase (RFU) [5]: 1079.674 RFU

C[C@H](N)C(=O)N[C@@H](CCC(N)=O)C(=O)O [L-Alanyl-L-glutamine] (H-Ala-Gln-OH)
Lipase (RFU) [6]: 945.4172 RFU

OCC=Cc1ccccc1 [Cinnamyl Alcohol]
Lipase (RFU) [6]: 1000.49 RFU
Lipase (RFU) [3]: 740.7814 RFU

O=C1C=CC(=O)c2ccccc21 [1,4-Naphthoquinone]
Lipase (RFU) [5]: 822.1115 RFU

CC(=O)C(=O)[O-].[Na+] [Sodium 2-oxopropanoate]
Lipase (RFU) [6]: 683.8023 RFU

C/C(=C/C(=O)O)C(=O)O [Citraconic Acid]
Lipase (RFU) [4]: 837.0688 RFU
Lipase (RFU) [3]: 914.7322 RFU

Nc1ncnc2c1ncn2[C@@H]1O[C@H](CO)[C@@H](O)[C@H]1O [AdenosineAcid]
Lipase (RFU) [1]: 1022.153 RFU

C#C[C@]1(O)CC[C@H]2[C@@H]3CCc4cc(O)ccc4[C@H]3CC[C@@]21C [Ethynyl Estradiol]
Lipase (RFU) [5]: 1110.911 RFU

c1cc2c(cc1[C@H]1OC[C@H]3[C@@H]1CO[C@@H]3c1ccc3c(c1)OCO3)OCO2 [Sesamin]
Lipase (RFU) [5]: 1111.465 RFU

O=C(/C=C/c1ccc(O)cc1)c1ccc(O)cc1O [Isoliquiritigenin]
Lipase (RFU) [5]: 1317.553 RFU

CC1=CC=C(C(C)C)CC1 [α-Terpinene]
Lipase (RFU) [6]: 1101.898 RFU

Nc1ccn([C@@H]2O[C@H](COP(=O)(O)O)[C@@H](O)[C@H]2O)c(=O)n1 [Cytidine-5′-monophosphate]
Lipase (RFU) [7]: 942.9374 RFU

NCCS(=O)(=O)O [Taurine]
Lipase (RFU) [7]: 1004.117 RFU
Lipase (RFU) [6]: 1067.763 RFU
Lipase (RFU) [3]: 842.028 RFU

CC(C(=O)O)c1ccccc1 (stereo not drawn) [2-Phenylpropionic acid]
Lipase (RFU) [5]: 1253.073 RFU

CCCCCCCCCCCCCCCCCCCCC(=O)O [Heneicosanoic acid]
Lipase (RFU) [5]: 1102.093 RFU

CSCC[C@H](NC(C)=O)C(=O)O [N-Acetyl-L-methionine]
Lipase (RFU) [6]: 878.6459 RFU

CC(C)c1cc2c(c(O)c1O)[C@@]13CCCC(C)(C)[C@@H]1C[C@@H]2OC3=O [Carnosol]
Lipase (RFU) [3]: 1134.624 RFU

C=C(C)[C@@H]1CCC2=CC(=O)C[C@@H](C)[C@]2(C)C1 [Nootkatone]
Lipase (RFU) [6]: 1252.835 RFU
Lipase (RFU) [5]: 734.6904 RFU

CC(C)=CCC/C(C)=C/COc1c2ccoc2cc2oc(=O)ccc12 [Bergamottin]
Lipase (RFU) [5]: 795.0103 RFU

OC[C@H]1O[C@H](OC[C@H]2O[C@H](OC[C@H]3OC(O)[C@H](O)[C@@H](O)[C@@H]3O)[C@H](O)[C@@H](O)[C@@H]2O)[C@H](O)[C@@H](O)[C@@H]1O (stereo partly drawn) [Isomaltotriose]
Lipase (RFU) [3]: 897.0005 RFU

COc1ccc(C(=O)O)cc1 [p-Anisic acid]
Lipase (RFU) [3]: 1003.08 RFU

CCCCCCCCCCCCCCCCCCCC(=O)O [Arachidic acid]
Lipase (RFU) [3]: 966.5559 RFU

COc1ccc(-c2coc3cc(O[C@@H]4O[C@H](CO)[C@@H](O)[C@H](O)[C@H]4O)ccc3c2=O)cc1 [Ononin]
Lipase (RFU) [5]: 1187.518 RFU

COC(=O)c1ccccc1O [Methyl Salicylate]
Lipase (RFU) [6]: 1262.516 RFU
Lipase (RFU) [5]: 864.5301 RFU

COC(=O)C1=CO[C@@H](O[C@@H]2O[C@H](CO)[C@@H](O)[C@H](O)[C@H]2O)[C@@H]2[C@@H](C)[C@@H](O)C[C@H]12 [Loganin]
Lipase (RFU) [5]: 996.2712 RFU

OC[C@H]1O[C@H](O[C@]2(CCl)O[C@H](CCl)[C@@H](O)[C@@H]2O)[C@H](O)[C@@H](O)[C@H]1Cl [Sucralose]
Lipase (RFU) [6]: 919.3825 RFU

COc1c(-c2ccc(O)c(O)c2)oc2cc(O)cc(O)c2c1=O [3-O-Methylquercetin]
Lipase (RFU) [3]: 1189.372 RFU

O=C(O)/C=C/C(=O)O [Fumaric Acid]
Lipase (RFU) [1]: 1056.645 RFU
Lipase (RFU) [6]: 762.3929 RFU
Lipase (RFU) [5]: 918.3772 RFU

COc1ccc(-c2cc(=O)c3c(O)c(OC)c(OC)cc3o2)cc1O [Eupatorin]
Lipase (RFU) [3]: 858.1529 RFU

O=C(O)c1cc(=O)[nH]c(=O)[nH]1 [Orotic Acid]
Lipase (RFU) [8]: 1057.435 RFU
Lipase (RFU) [5]: 826.427 RFU

Cc1cc(O)cc(C)c1O [2,6-Dimethylhydroquinone]
Lipase (RFU) [5]: 791.4555 RFU

O=C(O)CCCCC(=O)O [Adipic acid]
Lipase (RFU) [6]: 793.5413 RFU
Lipase (RFU) [5]: 1106.278 RFU

COC(=O)C=Cc1ccccc1 [Methyl cinnamate]
Lipase (RFU) [6]: 944.3607 RFU
Lipase (RFU) [3]: 1068.136 RFU

O=CC[C@H](O)[C@H](O)CO [2-Deoxy-D-Ribose]
Lipase (RFU) [4]: 844.3126 RFU

O=C[C@@H](O)[C@@H](O)[C@H](O)[C@H](O)CO [D-Mannose]
Lipase (RFU) [1]: 984.0635 RFU
Lipase (RFU) [5]: 1071.425 RFU

COC(=O)Cc1c[nH]c2ccccc12 [Methyl 2-(1H-indol-3-yl)acetate]
Lipase (RFU) [5]: 1039.458 RFU

O=C(O)C=Cc1ccc(O)cc1 [p-Hydroxycinnamic acid]
Lipase (RFU) [5]: 963.4234 RFU

Cn1cnc2c(ncn2[C@@H]2O[C@H](CO)[C@@H](O)[C@H]2O)c1=N [Compound 1-Methyladenosine, 1-Methyladenosine]
Lipase (RFU) [3]: 849.3773 RFU

O=c1cc(-c2ccc(O)cc2)oc2cc(O)cc(O)c12 [Apigenin]
Lipase (RFU) [5]: 930.6963 RFU

O=Cc1ccc(CO)o1 [Compound 5-Hydroxymethylfurfural, 5-Hydroxymethylfurfural]
Lipase (RFU) [5]: 1038.27 RFU

Cn1c(=O)[nH]c(=O)c2[nH]cnc21 [Compound 3-Methylxanthine, 3-Methylxanthine]
Lipase (RFU) [5]: 838.8506 RFU

Cc1ncc(C[n+]2csc(CCO[P@](=O)(O)OP(=O)(O)O)c2C)c(N)n1 [Thiamine pyrophosphate]
Lipase (RFU) [3]: 823.7716 RFU

Oc1cc(O)c2c(c1)O[C@H](c1ccc(O)c(O)c1)[C@H](O)[C@H]2c1c(O)cc(O)c2c1O[C@H](c1ccc(O)c(O)c1)[C@H](O)[C@H]2c1c(O)cc(O)c2c1O[C@H](c1ccc(O)c(O)c1)[C@H](O)C2 [Procyanidin C1]
Lipase (RFU) [5]: 962.3906 RFU

CSCC[C@@H](N)C(=O)O [D-Methionine]
Lipase (RFU) [7]: 1130.424 RFU

COC(=O)CC(C)=O [Methyl acetylacetate]
Lipase (RFU) [5]: 884.646 RFU

C[C@@H]1O[C@@H](OC[C@H]2O[C@@H](Oc3cc(O)c4c(c3)O[C@H](c3ccc(O)c(O)c3)CC4=O)[C@H](O)[C@@H](O)[C@@H]2O)[C@H](O)[C@H](O)[C@H]1O [Eriocitrin]
Lipase (RFU) [5]: 1094.778 RFU

CC/C(=C(/CC)c1ccc(O)cc1)c1ccc(O)cc1 [Diethylstilbestrol]
Lipase (RFU) [5]: 701.5237 RFU

COc1cc(C=O)ccc1O [Vanillin]
Lipase (RFU) [6]: 958.5749 RFU
Lipase (RFU) [5]: 832.4473 RFU

O=C[C@@H](O)[C@H](O)[C@@H](O)[C@@H](O)CO [L-Glucose]
Lipase (RFU) [4]: 694.8503 RFU

O=C(O)CCc1c[nH]c2ccccc12 [3-Indolepropionic acid]
Lipase (RFU) [3]: 1063.564 RFU

C=CC1=C(C)c2cc3[n-]c(cc4[n-]c(cc5nc(cc1n2)C(C)=C5C=C)c(C)c4CCC(=O)O)c(CCC(=O)O)c3C.O.[Fe+2] [Hematin]
Lipase (RFU) [8]: 854.3329 RFU

Cc1occc1SSc1ccoc1C [Bis(2-methyl-3-furyl)disulfide]
Lipase (RFU) [6]: 1036.712 RFU
